Data reported in patent US8551988B2, “Benzimidazole derivatives: preparation and pharmaceutical applications” (Mei Pharma, Inc., priority 2003, dated 2013).

Amino acid sequences for entries named in this document (tags omitted). A change or cut given only in a name is not applied to a line headed by its entry.
UniProt Q9BY41: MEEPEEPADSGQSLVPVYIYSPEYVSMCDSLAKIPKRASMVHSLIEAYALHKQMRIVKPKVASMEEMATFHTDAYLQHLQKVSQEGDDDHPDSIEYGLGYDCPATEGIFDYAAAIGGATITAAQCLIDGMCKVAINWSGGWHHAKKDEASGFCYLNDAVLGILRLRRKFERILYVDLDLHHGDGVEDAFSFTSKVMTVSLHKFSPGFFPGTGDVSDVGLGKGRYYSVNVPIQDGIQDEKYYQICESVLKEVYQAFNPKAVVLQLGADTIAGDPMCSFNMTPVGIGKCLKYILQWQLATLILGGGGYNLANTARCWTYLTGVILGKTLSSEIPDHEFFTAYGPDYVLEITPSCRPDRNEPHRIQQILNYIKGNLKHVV

Target: HDAC8 enzyme (recombinant GST-HDAC8) (Homo sapiens (Human), UniProt Q9BY41)
Experiment: In vitro HDAC assay (BIOMOL fluorescent-based HDAC activity assay), HDAC8
Assay type: biochemical

IC50: 1000 nM
Compound: O=C(/C=C/c1ccc2c(c1)nc(CCc1ccccc1)n2CCc1ccccc1)NO [Compound 26, N-Hydroxy-3-(1,2-Diphenethyl-1H-benzimidazol-5-yl]-acrylamide]
